Assay results as given in patent US4999359A, “Heterocyclic ethylene diamine compounds and their pharmaceutical compositions and methods” (Dr. Lo Zambeletti S.p.A., priority 1988, dated 1991).

By UniProt entry, the sequences of proteins in these tests, tags left out. Where a name states a change or a piece, a line headed by the entry shows the natural chain unless it says otherwise. Residues count along the entry.
UniProt P41144: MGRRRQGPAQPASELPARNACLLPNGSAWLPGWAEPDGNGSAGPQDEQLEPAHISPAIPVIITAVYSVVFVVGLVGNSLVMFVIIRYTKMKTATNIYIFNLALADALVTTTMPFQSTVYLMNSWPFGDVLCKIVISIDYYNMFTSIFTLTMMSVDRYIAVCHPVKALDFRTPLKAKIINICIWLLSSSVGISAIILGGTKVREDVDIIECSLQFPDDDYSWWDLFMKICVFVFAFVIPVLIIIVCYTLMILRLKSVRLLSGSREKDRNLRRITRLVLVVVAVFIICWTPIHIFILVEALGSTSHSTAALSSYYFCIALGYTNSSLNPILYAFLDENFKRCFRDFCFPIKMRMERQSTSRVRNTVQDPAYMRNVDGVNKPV
UniProt A0ACM8Q262, 1-400: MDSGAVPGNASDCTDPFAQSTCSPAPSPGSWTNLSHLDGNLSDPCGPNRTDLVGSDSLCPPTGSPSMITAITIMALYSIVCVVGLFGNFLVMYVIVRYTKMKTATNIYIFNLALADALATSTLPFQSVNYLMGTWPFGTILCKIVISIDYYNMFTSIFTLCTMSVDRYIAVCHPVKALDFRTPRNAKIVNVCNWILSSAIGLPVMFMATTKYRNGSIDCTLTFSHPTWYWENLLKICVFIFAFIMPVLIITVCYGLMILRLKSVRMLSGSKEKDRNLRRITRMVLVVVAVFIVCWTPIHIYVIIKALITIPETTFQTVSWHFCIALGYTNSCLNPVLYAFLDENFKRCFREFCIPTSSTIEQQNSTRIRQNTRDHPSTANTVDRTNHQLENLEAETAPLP

What was measured:
[1] = tested on: mice (tail-flick); assay: Mouse Tail-flick test; format: in vivo; conditions: s.c., 30 min after dosing, calculated for the free base
[2] = molecular target: kappa opioid receptors (Cavia porcellus, UniProt P41144); assay: Binding to K sites (tritiated Ethylketocyclazocine), receptor affinity study; conditions: read-out: OPIATE RECEPTORS BINDING ki KAPPA; guinea pig brain homogenate; 3H-Ethylketocyclazocine with 100 nM DADLE and 100 nM DAGO; 40 min, 25° C.
[3] = molecular target: μ opioid receptor (Cavia porcellus, UniProt A0ACM8Q262); assay: Binding to μ sites (3H-DAGO), receptor affinity study; conditions: read-out: OPIATE RECEPTORS BINDING ki MU, guinea pig brain homogenate, 40 min, 25° C.

## CN(C(=O)Cc1ccc(Cl)c(Cl)c1)C(CN1CCCC1)c1ccsc1 (stereo not drawn)
[1]
  ANALGESIA TAIL-FLICK ED50 (a): 0.127 mg/kg
[2]
  pKi: 8.70
[3]
  pKi: 6.84

pKi: −log10 of the molar value.
